Data from ChEMBL document CHEMBL1140924, “Biomedical application of orexin/hypocretin receptor ligands in neuroscience” (J Med Chem, 2009).

Protein sequences, listed by entry. Tags and fused reporters are not part of them.
UniProt O43613, whole entry: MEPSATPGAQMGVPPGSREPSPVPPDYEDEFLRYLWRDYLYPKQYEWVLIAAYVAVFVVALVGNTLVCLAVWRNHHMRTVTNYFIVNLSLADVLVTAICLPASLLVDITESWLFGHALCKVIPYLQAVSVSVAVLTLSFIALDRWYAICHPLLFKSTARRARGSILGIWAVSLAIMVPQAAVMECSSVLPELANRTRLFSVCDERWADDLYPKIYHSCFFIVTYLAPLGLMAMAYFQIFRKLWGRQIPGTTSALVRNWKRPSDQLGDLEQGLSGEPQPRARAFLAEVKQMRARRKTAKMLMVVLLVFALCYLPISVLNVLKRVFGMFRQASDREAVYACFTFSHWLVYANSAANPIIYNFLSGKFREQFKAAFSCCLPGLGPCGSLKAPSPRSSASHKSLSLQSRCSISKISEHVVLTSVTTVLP

Target: Orexin/Hypocretin receptor type 1 (Homo sapiens, UniProt O43613)
Experiment: Inhibition of OX1 receptor

IC50: 13 nM
Structure (SMILES): CNC(=O)[C@@H](c1ccccc1)N1CCc2cc(OC)c(OC)cc2[C@@H]1CCc1ccc(C(F)(F)F)cc1 [ALMOREXANT]
